{
  "source": "ChEMBL document CHEMBL4190188",
  "about": "“Neuroprotective Activity of Cerebrosides from Typhonium giganteum by Regulating Caspase-3 and Bax/Bcl-2 Signaling Pathways in PC12 Cells” (J Nat Prod, 2017)",
  "test_system": "PC-12",
  "test": "Neuroprotective activity against 12.5 mM glutamate-induced toxicity in rat PC12 cells assessed as cell viability after 24 hrs by MTT assay",
  "format": "functional, cell-based",
  "data": [
    {"smiles": "CCCCCCCCC/C=C\\CC/C=C/[C@@H](O)[C@H](CO[C@@H]1O[C@H](CO)[C@@H](O)[C@H](O)[C@H]1O)NC(=O)[C@H](O)CCCCCCCCCCCCCCCCCCCCCC", "values": [
      {"measurement": "Activity", "result": "Dose-dependent effect"}
    ]}
  ]
}
